Yeast mating assay B: variants of the scFv Ab-14

Target: peptide PDVDLGDISGINAS, taken from heptad repeat 2 (HR2) of SARS-CoV-2 spike.

The variants keep the light chain, the linker and the frameworks of Ab-14 (scFv order VH, three GGGGS repeats, VL).
VH: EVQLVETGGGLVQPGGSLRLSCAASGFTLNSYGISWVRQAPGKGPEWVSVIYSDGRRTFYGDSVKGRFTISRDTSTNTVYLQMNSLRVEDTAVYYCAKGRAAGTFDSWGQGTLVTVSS
VL: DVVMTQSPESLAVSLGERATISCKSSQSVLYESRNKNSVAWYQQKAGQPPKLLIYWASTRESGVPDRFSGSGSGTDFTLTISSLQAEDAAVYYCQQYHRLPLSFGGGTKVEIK

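Phage display of a naive human antibody library on the peptide gave the parent. Designed CDR sequences, proposed from the first random library and measured here. Several design methods are mixed in this list. AlphaSeq pools MATa yeast showing the antibodies with MATalpha yeast showing the peptide. The frequency of each diploid, read from paired DNA barcodes, reflects how well the two displayed proteins bind. Scores were corrected for input abundance and mapped to Kd with protein pairs of known affinity run in the same pool. Each pool was mated in six replicate cultures.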

Each variant is given by its three heavy chain CDRs, as the data file delimits them; those of the parent are GFTLNSYGIS, VIYSDGRRTFYGDSVK, GRAAGTFDS.
This list holds designs with at most six substitutions.
Kd is apparent (estimated from mating counts) and averaged on the log scale over replicates with a signal. Smaller is tighter.
"not detected" means that the variant was in the library but no mating with the target was seen in any replicate; the authors take this as a sign of poor binding, and no number exists.

| CDR-H1 | CDR-H2 | CDR-H3 | Kd | seen in | signal with controls |
|---|---|---|---|---|---|
| GFELNSYGIS | VIYSDGRRTFYGDSVK | GQVAGTFDT | 2.3 nM | 6 of 6 | 0 of 18 |
| GFHLNEYGIS | VIYSDGRRTFYTDSVK | GVAAGTFDS | 3.7 nM | 6 of 6 | 0 of 18 |
| GFTLESYGIS | VIYSDGRRTFYNDSVK | GRAAGTFDS | 43 nM | 6 of 6 | 1 of 18 |
| GFGLNDYGIS | VIYSDGRRTFYGDSVK | GRTAGTFDS | 2.2 nM | 6 of 6 | 2 of 18 |
| GFTLNEYGIS | VIYSDGRRTWYGDSVK | GRAAGTFDS | 1.3 nM | 9 of 12 | 0 of 36 |
| GFTINSYGIS | VIYSDGRRTFYGDSVK | GRVAGTFDS | not detected | 0 of 6 | 0 of 18 |
| GFSLNSYGIS | VIYSDGRRTFYHDSVK | GRTAGTFDD | 3.9 nM | 6 of 6 | 0 of 18 |
| MFWLNEYGIS | VIYSDGRRTFYGDSVK | GRTAGTFDS | not detected | 0 of 6 | 0 of 18 |
| GFTLNSYGSS | VIYSDGRRTFQSDSVK | GWAGGTFDS | not detected | 0 of 6 | 0 of 18 |
| GFQLNSYGIS | VIYSDGRRTFYGDSVK | GVAAGTFDS | 5.5 nM | 1 of 6 | 0 of 18 |
| GFQLNSYGIS | VIYSDGRRTFYGDPVK | GRTAGTFDS | 140 nM | 4 of 6 | 1 of 18 |
| GFTLDSYGIS | VIHSDGRRTRYGDSVK | GRCAGTALS | not detected | 0 of 6 | 0 of 18 |
| GFTLNEYGIS | VIYSDGRRTFYGDSVK | GQAAGTFVS | 33 nM | 2 of 6 | 0 of 18 |
| GFSLNEYGIS | VIYSDGRRTFYGDSVK | GKAAGTFDT | not detected | 0 of 6 | 1 of 18 |
| GFSLNSYGIS | VIYSDGRRTFYQDSVK | GSVAGTFDS | 880 pM | 6 of 6 | 0 of 18 |
| GFSLNSYGIS | VIYSDGKRTFYSDSVK | GRQAGTFDS | 1.4 nM | 6 of 6 | 1 of 18 |
| GFTLDSYEIS | VIYSDGRRTFYGDSVK | GRAAGTALH | not detected | 0 of 6 | 0 of 18 |
| GFTLNEYGIS | VIYSDGRRTFYADSVK | GRRAGTFDS | 990 pM | 6 of 6 | 0 of 18 |
| KFTLNEYGIS | VIYSDGRRTFYTDSVK | GRTAGTFDS | 11 nM | 6 of 6 | 2 of 18 |
| RFTLNSYGIS | VIYSDGRRTFYIDSVK | GRTAGTFDS | not detected | 0 of 6 | 0 of 18 |
| GFNLNSYGIS | VIYSDGRRTFYGDEVK | GRQAGTFDS | 100 nM | 1 of 6 | 0 of 18 |
| GFTLNSYGIS | VIYSDGMRTFYGDSVR | GIEAGTFDS | 40 nM | 6 of 6 | 0 of 18 |
| GFSLNDYGIS | VIYSDGRRTFYGDSVK | GQTAGTFDS | 370 pM | 6 of 6 | 1 of 18 |
| GFTLDSYGIS | VIYSDGRRTFYDDSVK | GHLAGTFDS | 3.2 nM | 6 of 6 | 0 of 18 |
| GFKLNSYGIS | VIYSDGRRTFYTDSVK | GRTAGTFDS | 25 nM | 3 of 6 | 0 of 18 |
| GFTLNSYGIS | VILSDGRRKFYNDSVK | GQLAGTFDS | not detected | 0 of 6 | 0 of 18 |
| GFTLNEYGIS | VIYSDGRRTFYHDSVK | GRAAGAFDS | not detected | 0 of 6 | 0 of 18 |
| GFTLDSYGIS | VIYSDGRRTFYKDSVK | GRAAGTFDS | 17 nM | 6 of 6 | 0 of 18 |
| GFTLNNYGIS | VIYSDGRRTFYSDSVK | GRLAGTFDT | 5.2 nM | 6 of 6 | 0 of 18 |
| GFTLNSYGIS | VIYADGRRTFYGDSVK | GRAAGTFKL | 2.7 nM | 6 of 6 | 0 of 18 |
| GFTLNSYGIS | VIYADYRRTRYGSSVK | GRAAGTNKS | not detected | 0 of 6 | 0 of 18 |
| GFTLNSYGIS | VIYADGRRTFYGDSVK | GRAAGTLDS | 13 nM | 4 of 6 | 1 of 18 |
| GFNLNSYGIS | VIYSDGRRTFYVDSVK | GSTAGTFDS | 6.8 nM | 5 of 6 | 0 of 18 |
| GFTLNSYGIS | VIYSDGRRTFYTDSVK | GPLAGTFNS | 140 nM | 1 of 6 | 0 of 18 |
| GFTLNRYGIS | VIYSDGRRTFYCDSVK | GQLAGFFDS | 11 nM | 3 of 6 | 0 of 18 |
| GFTLNQYGIS | VIYSRGRRTQYSDSVK | GRAAGFFDS | not detected | 0 of 6 | 0 of 18 |
| GFTLNDYGIS | VIYSDGRRTFYGDSVK | GRVAGTFDY | 1.6 nM | 5 of 6 | 1 of 18 |
| GFTLNEYGIS | VIYSDGRRTFYGDSVK | GRTAGTFDV | 390 pM | 6 of 6 | 0 of 18 |
| GFTLQDYGIS | VIYSDGQRTFYGDKVK | GRAADTFDY | not detected | 0 of 6 | 1 of 18 |
| GFDLNSYGIS | VIYSDGRRTFYADSVK | GRMAGTFDT | 910 pM | 6 of 6 | 0 of 18 |
| GFSLNSYGIS | VIYSDGRRTFYGDSVK | GEAAGTFDV | 4.5 nM | 6 of 6 | 2 of 18 |
| GFHLNEYGIS | VIYSDGRRTMYGDSVK | GRAAGTFDS | 4.5 nM | 5 of 6 | 1 of 18 |
| GFNLNSYGIS | VIYSDGRRTFYGDSVK | GQTAGTFDS | 2.5 nM | 2 of 6 | 0 of 18 |
| GFTLNEYGIS | VIYSDGRRTMYTDSVK | GRNAGTFDS | 1.6 nM | 6 of 6 | 1 of 18 |
| GFDLNNYGIS | VIYSDGRRTFYGDSVK | GRAAGTFDQ | 18 nM | 6 of 6 | 1 of 18 |
| GFTLNSYGIS | VIYSDGRRTAYEDSVK | DKAAGPFDS | 7.1 µM | 2 of 6 | 0 of 18 |
| GFNLNSYGIS | VIYSDGRRTFYVDSVK | GRQAGTFDS | 38 nM | 6 of 6 | 0 of 18 |
| GFTLSQYGIS | VIYSDGRRTFYGDSVK | MDAAGTFDS | 65 nM | 5 of 6 | 1 of 18 |
| KFDLNSYGIS | VIYSDGRRTFYGDSVK | GKNAGTFDS | 8.3 nM | 6 of 6 | 0 of 18 |
| GFGLNDYGIS | VIYSDGRRTFYSDSVK | GRTAGTFDS | 640 pM | 6 of 6 | 0 of 18 |
| GFTLNDYGIS | VIYSDGRRTFYGDSVK | GRLAGTFWS | not detected | 0 of 6 | 0 of 18 |
| GFMLNSYGIS | VIYSDGRRTFYKDSVK | GQTAGTFDS | 13 nM | 6 of 6 | 0 of 18 |
| GFSLNSYGIS | VIYSDGRRTFYGDSVK | GQLAGTFDS | 2.3 nM | 6 of 6 | 0 of 18 |
| GFTLESYGIS | VIYSDGKRTFYADSVK | GRTAGTFDS | 730 pM | 6 of 6 | 0 of 18 |
| GFDLNEYGIS | VIYADGKRTFYSDSVK | GEAAGTFDS | 940 pM | 6 of 6 | 0 of 18 |
| GFTLNEYGIS | VIYSDGRRTFYGDSVK | GRAMGTFLS | 30 nM | 1 of 6 | 0 of 18 |
| GFQLNSYGIS | VIYSDGRRTAYGDSVK | GIASGTFDS | not detected | 0 of 6 | 0 of 18 |
| KETLNSYGIS | VIYADGRRTFYEDSVK | GRVAGTFDS | 840 pM | 6 of 6 | 0 of 18 |
| RFTLNDYGIS | VIYSDGRRTQYIDSVK | GRAAGTFDS | not detected | 0 of 6 | 0 of 18 |
| GFTLNSYGIS | VIYSDGRRTFYSDSVK | GRLGGTFDT | 9.8 nM | 6 of 6 | 0 of 18 |
| GFELNSYGIS | VIYSDGRRTFYADAVK | GRTAGTFDS | 13 nM | 6 of 6 | 0 of 18 |
| SFDLNSYGIS | VIYSDGRRTFYGDSVK | GWTAGTFDS | 68 nM | 4 of 6 | 0 of 18 |
| GFSLNSYGIS | VIYSDGRRTFYSDSVK | GWQAGTFDS | 1.6 nM | 6 of 6 | 0 of 18 |
| GFTLNSYGIS | VIYSDGVRTFYADSVK | GEAAGTFDS | 680 nM | 3 of 6 | 0 of 18 |
| GFQLNEYGIS | VIYSDGRRTFYGDAVK | GRAAGTFDI | 670 pM | 5 of 6 | 0 of 18 |
| KFTLNSYGIS | VIYSDGRRTFYADSVK | GQTAGTFDS | 6.4 nM | 6 of 6 | 1 of 18 |
| GFTLNSYGIS | VIYSDGRRTFYTDSVK | GKFAGTFDS | 36 nM | 6 of 6 | 0 of 18 |
| GFTPNSYGIS | VIYSDGQQTFYGDSVK | GRAAGQFDL | 300 nM | 1 of 6 | 0 of 18 |
| GFTLDSYGIS | VIYSDGRRTIYGDSVK | GRAAGTFDS | not detected | 0 of 6 | 0 of 18 |
| GFDLNSYGIS | VIYSDGLRTFYEDSVK | GRTAGTFDS | 890 pM | 6 of 6 | 0 of 18 |
| GFDLNSYGIS | VIYSDGRRTFYADQVK | GQTAGTFDS | 15 nM | 6 of 6 | 0 of 18 |
| QFGLNSYGIS | VIYSDGRRTFYGDSVK | GRNAKTFDS | not detected | 0 of 6 | 0 of 18 |
| GFDLNSYGIS | VIYSDGRRTFYVDSVK | GRCAGTFDS | 96 nM | 1 of 6 | 0 of 18 |
| GFTLNSYGPS | VIYSDGRRTFYGDSVK | GRGAGTFDS | 12 nM | 2 of 6 | 0 of 18 |
| GFTLNEYGIS | VIYSDGRRTFYADDVK | GEAAGTFKS | 2.4 nM | 1 of 6 | 0 of 18 |
| GFELNDYGIS | VIYSDGRRTSYIDSVK | GRAAGTFDS | 5.0 nM | 6 of 6 | 1 of 18 |

Picked from the list: the 12 lowest averages where every replicate gave a value.

| CDR-H1 | CDR-H2 | CDR-H3 | Kd | seen in | signal with controls |
|---|---|---|---|---|---|
| GFSLNDYGIS | VIYSDGRRTFYGDSVK | GQTAGTFDS | 370 pM | 6 of 6 | 1 of 18 |
| GFTLNEYGIS | VIYSDGRRTFYGDSVK | GRTAGTFDV | 390 pM | 6 of 6 | 0 of 18 |
| GFGLNDYGIS | VIYSDGRRTFYSDSVK | GRTAGTFDS | 640 pM | 6 of 6 | 0 of 18 |
| GFTLESYGIS | VIYSDGKRTFYADSVK | GRTAGTFDS | 730 pM | 6 of 6 | 0 of 18 |
| KETLNSYGIS | VIYADGRRTFYEDSVK | GRVAGTFDS | 840 pM | 6 of 6 | 0 of 18 |
| GFSLNSYGIS | VIYSDGRRTFYQDSVK | GSVAGTFDS | 880 pM | 6 of 6 | 0 of 18 |
| GFDLNSYGIS | VIYSDGLRTFYEDSVK | GRTAGTFDS | 890 pM | 6 of 6 | 0 of 18 |
| GFDLNSYGIS | VIYSDGRRTFYADSVK | GRMAGTFDT | 910 pM | 6 of 6 | 0 of 18 |
| GFDLNEYGIS | VIYADGKRTFYSDSVK | GEAAGTFDS | 940 pM | 6 of 6 | 0 of 18 |
| GFTLNEYGIS | VIYSDGRRTFYADSVK | GRRAGTFDS | 990 pM | 6 of 6 | 0 of 18 |
| GFSLNSYGIS | VIYSDGKRTFYSDSVK | GRQAGTFDS | 1.4 nM | 6 of 6 | 1 of 18 |
| GFSLNSYGIS | VIYSDGRRTFYSDSVK | GWQAGTFDS | 1.6 nM | 6 of 6 | 0 of 18 |

A sequence measured in both rounds can read differently, since the two assays cover different ranges.
Empty control strains, which show no peptide, gave a signal in 1% of pairings with all heavy chain designs; the median was 120 nM and 95% of these signals were weaker than 7.0 nM. No background was subtracted. For each scFv, signals with the empty controls are counted beside the result.
Some sequences occur more than once in the pool; their replicates are pooled.
The parent sequence was in this pool as ten entries: three were never detected, three once, and four in most replicates, with averages from 2.2 nM to 240 nM.
In the paper, a design with two or fewer of six values counts as a poor binder.

The measurements come from Li et al. 2023 (doi:10.1038/s41467-023-39022-2) through the FLAb antibody collection.